Consider one molecule from patent US12433510B2, “Methods and systems for improved collection of interstitial fluid” (Georgia Tech Research Corporation, priority 2017, dated 2025).

The nature of the data set: clinical. To be noted: human, in vivo.

On to `Cn1c(=O)c2c(ncn2C)n(C)c1=O` [caffeine], for which the Kp is 0.95 ± 0.52.
